Results: patent publication US20120214975A1

Amino acid sequences for entries named in this document (tags omitted). Residues count along the entry.
UniProt P08637, 17-254: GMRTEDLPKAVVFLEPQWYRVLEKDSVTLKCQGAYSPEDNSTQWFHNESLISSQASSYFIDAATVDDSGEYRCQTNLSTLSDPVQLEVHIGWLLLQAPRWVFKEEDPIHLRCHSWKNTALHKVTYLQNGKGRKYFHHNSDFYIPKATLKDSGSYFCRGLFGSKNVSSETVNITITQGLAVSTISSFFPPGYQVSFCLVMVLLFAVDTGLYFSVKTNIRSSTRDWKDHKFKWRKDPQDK

Biological target: FcγRIIIa on primary human NK cells (human) (UniProt P08637)
Assay: cell-based or functional assay

ADCC EC50, BT-474 target cells, primary human NK cells [ng/mL] | ADCC EC50, SK-BR-3 target cells, primary human NK cells [ng/mL] | ADCC Ratio (WT/H) of EC50, BT-474 target cells [fold] | ADCC Ratio (WT/H) of EC50, SK-BR-3 target cells [fold] | Substance
0.454 | 0.0932 | 13 | 14 | afucosylated IgG derived from RMD-CHO clone H1 (Trastuzumab biosimilar, IgG1) (antibody)
0.227 | 0.0602 | 27 | 22 | afucosylated IgG derived from RMD-CHO clone H2 (Trastuzumab biosimilar, IgG1) (antibody)
0.647 | 0.0917 | – | – | afucosylated IgG derived from RMD-CHO clone H3 (Trastuzumab biosimilar, IgG1) (antibody)
6.03 | 1.31 | – | – | wild type fucosylated IgG (biosimilar version of the IgG1-type therapeutic antibody Trastuzumab, secreted from unmodified CHO-IgG cells)
